Measured values published in US20240360179A1, “STAPLED PEPTIDES AND METHODS THEREOF” (FOG PHARMACEUTICALS, INC., priority 2021, published 2024).
Each block holds one molecule with its values, some of them ahead of it.

Amino acid sequences for entries named in this document (tags omitted).
UniProt P35222, whole entry: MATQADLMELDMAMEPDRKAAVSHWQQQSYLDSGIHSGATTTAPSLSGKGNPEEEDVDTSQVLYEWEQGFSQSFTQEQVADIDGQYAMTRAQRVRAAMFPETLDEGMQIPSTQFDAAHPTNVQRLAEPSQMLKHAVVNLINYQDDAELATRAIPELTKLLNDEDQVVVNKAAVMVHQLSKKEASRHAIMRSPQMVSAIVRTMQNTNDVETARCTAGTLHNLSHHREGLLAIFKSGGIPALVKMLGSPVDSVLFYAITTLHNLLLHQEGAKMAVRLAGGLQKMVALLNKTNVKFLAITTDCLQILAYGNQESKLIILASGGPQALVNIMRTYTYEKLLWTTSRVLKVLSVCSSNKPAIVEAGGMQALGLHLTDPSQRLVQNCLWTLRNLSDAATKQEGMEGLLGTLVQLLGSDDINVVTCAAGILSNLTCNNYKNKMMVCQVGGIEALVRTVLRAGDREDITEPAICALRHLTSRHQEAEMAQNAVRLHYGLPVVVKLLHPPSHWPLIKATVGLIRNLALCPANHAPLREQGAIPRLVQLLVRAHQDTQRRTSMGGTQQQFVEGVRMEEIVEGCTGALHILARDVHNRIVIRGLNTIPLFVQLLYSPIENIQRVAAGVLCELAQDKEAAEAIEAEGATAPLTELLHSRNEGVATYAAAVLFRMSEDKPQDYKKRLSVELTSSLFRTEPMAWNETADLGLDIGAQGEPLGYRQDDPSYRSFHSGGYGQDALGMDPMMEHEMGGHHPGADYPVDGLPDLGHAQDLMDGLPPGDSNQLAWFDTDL

Assays:
[1] = molecular target: beta-catenin/TCF4 interaction (Homo sapiens, UniProt P35222); test: cell-based; design: host or cells: HEK293; settings: NanoBRET Abs IC50 (uM), absolute IC50
[2] = molecular target: T1, full-length B-Catenin (Uniprot ID P35222) (Homo sapiens, UniProt P35222); test: biochemical; type: binding; settings: beta-Catenin FP IC50 (nM), competition fluorescence polarization
T1 construct: 10 nM full-length B-Catenin (Uniprot ID P35222)

SMILES: C[C@H](NC(=O)[C@@H]1CCC(=O)NCCCC[C@@H]2NC(=O)[C@H](Cc3ccccc3)NC(=O)[C@H](C)NC(=O)C(C)(C)NC(=O)[C@H](Cc3cccc(C(=O)O)c3)NC(=O)[C@H](CC(=O)O)NC(=O)[C@](C)(NC(=O)[C@@H]3CC=CCOc4ccccc4C(=O)N4CCC[C@@]4(C)C(=O)N[C@@H](CC(=O)O)C(=O)N3)CCCC=CCCCOC(=O)N3CC[C@@](C3)(NC2=O)C(=O)N[C@@H](Cc2ccsc2)C(=O)N[C@@H](Cc2csc3ccccc23)C(=O)N1)C(N)=O (relative stereo) [I-471, BzAm20Allyl-MePro-Asp-AllylGly-R5-Asp-3COOHF-Aib-Ala-Phe-Lys*3-PyrS2-3Thi-BztA-GlnR*3-Ala-NH2]
IC50 [1]: > 10 µM | IC50 [2]: < 50 nM

SMILES: CC(=O)N1CCC[C@]12CC=CCCCC1(CCCC=CCCCOC(=O)N3CC[C@@]4(C3)NC(=O)[C@H](CCCCNC(=O)CC[C@@H](C(=O)N[C@@H](C)C(N)=O)NC(=O)[C@H](Cc3ccc(Cl)c(Cl)c3)NC(=O)[C@H](Cc3ccccc3Cl)NC4=O)NC(=O)[C@H](Cc3ccccc3)NC(=O)[C@H](C)NC(=O)C(C)(C)NC(=O)[C@H](Cc3cccc(C(=O)O)c3)NC(=O)[C@H](CC(=O)O)NC1=O)NC(=O)[C@H](CC(C)(C)C)NC(=O)[C@H](CC(=O)O)NC2=O (relative stereo) [I-472, Ac-PL3-Asp-Npg-B5-Asp-3COOHF-Aib-Ala-Phe-Lys*3-PyrS2-2ClF-34ClF-GlnR*3-Ala-NH2]
IC50 [1]: 1.5 to 3 µM | IC50 [2]: < 50 nM

SMILES: CC(=O)N1CCC[C@]12CC=CCCCC1(CCCC=CCCCOC(=O)N3CC[C@@]4(C3)NC(=O)[C@H](CCCCNC(=O)CC[C@@H](C(=O)N[C@@H](C)C(N)=O)NC(=O)[C@H](Cc3ccc(Cl)c(Cl)c3)NC(=O)[C@H](Cc3ccccc3)NC4=O)NC(=O)[C@H](Cc3ccc(O)cc3)NC(=O)[C@H](C)NC(=O)C(C)(C)NC(=O)[C@H](Cc3cccc(C(=O)O)c3)NC(=O)[C@H](CC(=O)O)NC1=O)NC(=O)[C@H](CC(C)(C)C)NC(=O)[C@H](CC(=O)O)NC2=O (relative stereo) [I-477, Ac-PL3-Asp-Npg-B5-Asp-3COOHF-Aib-Ala-Tyr-Lys*3-PyrS2-Phe-34ClF-GlnR*3-Ala-NH2]
IC50 [1]: 3 to 10 µM | IC50 [2]: < 50 nM

SMILES: CC(=O)N1CCC[C@]12CC=CCCCC1(CCCC=CCCCOC(=O)N3CC[C@@]4(C3)NC(=O)[C@H](CCCCNC(=O)CC[C@@H](C(=O)N[C@@H](CC(C)C)C(=O)N[C@@H](CC(=O)O)C(=O)N[C@@H](C)C(N)=O)NC(=O)[C@H](Cc3csc5ccccc35)NC(=O)[C@H](Cc3ccsc3)NC4=O)NC(=O)[C@H](Cc3ccccc3)NC(=O)[C@H](C)NC(=O)C(C)(C)NC(=O)[C@H](Cc3cccc(C(=O)O)c3)NC(=O)[C@H](CC(=O)O)NC1=O)NC(=O)[C@H](CC(C)(C)C)NC(=O)[C@H](CC(=O)O)NC2=O (relative stereo) [I-493, Ac-PL3-Asp-Npg-B5-Asp-3COOHF-Aib-Ala-Phe-Lys*3-PyrS2-3Thi-BztA-GlnR*3-Leu-Asp-Ala-NH2]
IC50 [1]: 3 to 10 µM | IC50 [2]: < 50 nM

SMILES: CC(=O)N1CCC[C@]12CC=CCCCC1(CCCC=CCCCOC(=O)N3CC[C@@]4(C3)NC(=O)[C@H](CCCCNC(=O)CC[C@@H](C(=O)N[C@H](C(=O)N[C@@H](CCC(=O)O)C(=O)N[C@@H](C)C(N)=O)C(C)C)NC(=O)[C@H](Cc3csc5ccccc35)NC(=O)[C@H](Cc3ccsc3)NC4=O)NC(=O)[C@H](Cc3ccccc3)NC(=O)[C@H](C)NC(=O)C(C)(C)NC(=O)[C@H](Cc3cccc(C(=O)O)c3)NC(=O)[C@H](CC(=O)O)NC1=O)NC(=O)[C@H](CC(C)(C)C)NC(=O)[C@H](CC(=O)O)NC2=O (relative stereo) [I-507, Ac-PL3-Asp-Npg-B5-Asp-3COOHF-Aib-Ala-Phe-Lys*3-PyrS2-3Thi-BztA-GlnR*3-Val-Glu-Ala-NH2]
IC50 [1]: 1.5 to 3 µM | IC50 [2]: < 50 nM

SMILES: C[C@H](NC(=O)[C@@H]1CCC(=O)NCCCC[C@@H]2NC(=O)[C@H](Cc3ccccc3)NC(=O)[C@H](C)NC(=O)C(C)(C)NC(=O)[C@H](Cc3cccc(C(=O)O)c3)NC(=O)[C@H](CC(=O)O)NC(=O)[C@](C)(NC(=O)[C@@H]3CN(C(=O)c4ccccc4)CC=CCCCC(=O)N4CCC[C@@]4(C)C(=O)N[C@@H](CC(=O)O)C(=O)N3)CCCC=CCCCOC(=O)N3CC[C@@](C3)(NC2=O)C(=O)N[C@@H](Cc2ccsc2)C(=O)N[C@@H](Cc2csc3ccccc23)C(=O)N1)C(N)=O (relative stereo) [I-520, 5hexenyl-MePro-Asp-[Phc][Allyl]Dap-R5-Asp-3COOHF-Aib-Ala-Phe-Lys*3-PyrS2-3Thi-BztA-GlnR*3-Ala-NH2]
IC50 [1]: > 10 µM | IC50 [2]: < 50 nM

SMILES: CC(=O)N1CCC[C@]12CC=CCCCC1(CCCC=CCCCOC(=O)N3CC[C@@]4(C3)NC(=O)[C@H](CCCCNC(=O)CC[C@@H](C(=O)N[C@@H](C)C(N)=O)NC(=O)[C@H](Cc3csc5ccccc35)NC(=O)[C@H](Cc3ccsc3)NC4=O)NC(=O)[C@H](Cc3ccccc3)NC(=O)[C@H](C)NC(=O)C(C)(C)NC(=O)[C@H](Cc3cccc(C(=O)O)c3)NC(=O)[C@H](CCC(=O)O)NC1=O)NC(=O)[C@H](CC(C)(C)C)NC(=O)[C@H](CC(=O)O)NC2=O (relative stereo) [I-547, Ac-PL3-Asp-Npg-B5-Glu-3COOHF-Aib-Ala-Phe-Lys*3-PyrS2-3Thi-BztA-GlnR*3-Ala-NH2]
IC50 [1]: > 10 µM | IC50 [2]: < 50 nM

The remaining lines, values ahead:

IC50 [1]: 1.5 to 3 µM | IC50 [2]: < 50 nM
SMILES: CC(=O)N1CCC[C@]12CC=CCCCC1(CCCC=CCCCOC(=O)N3CC[C@@]4(C3)NC(=O)[C@H](CCCCNC(=O)CC[C@@H](C(=O)N[C@@H](C)C(N)=O)NC(=O)[C@H](Cc3ccc(Cl)c(Cl)c3)NC(=O)[C@H](Cc3ccccc3)NC4=O)NC(=O)[C@H](Cc3ccsc3)NC(=O)[C@H](C)NC(=O)C(C)(C)NC(=O)[C@H](Cc3cccc(C(=O)O)c3)NC(=O)[C@H](CC(=O)O)NC1=O)NC(=O)[C@H](CC(C)(C)C)NC(=O)[C@H](CC(=O)O)NC2=O (relative stereo) [I-478, Ac-PL3-Asp-Npg-B5-Asp-3COOHF-Aib-Ala-3Thi-Lys*3-PyrS2-Phe-34ClF-GlnR*3-Ala-NH2]

IC50 [1]: 3 to 10 µM | IC50 [2]: < 50 nM
SMILES: CC(=O)N1CCC[C@]12CC=CCCCC1(CCCC=CCCCOC(=O)N3CC[C@@]4(C3)NC(=O)[C@H](CCCCNC(=O)CC[C@@H](C(=O)N[C@H](C(=O)N[C@@H](CC(=O)O)C(=O)N[C@@H](C)C(N)=O)C(C)C)NC(=O)[C@H](Cc3csc5ccccc35)NC(=O)[C@H](Cc3ccsc3)NC4=O)NC(=O)[C@H](Cc3ccccc3)NC(=O)[C@H](C)NC(=O)C(C)(C)NC(=O)[C@H](Cc3cccc(C(=O)O)c3)NC(=O)[C@H](CC(=O)O)NC1=O)NC(=O)[C@H](CC(C)(C)C)NC(=O)[C@H](CC(=O)O)NC2=O (relative stereo) [I-506, Ac-PL3-Asp-Npg-B5-Asp-3COOHF-Aib-Ala-Phe-Lys*3-PyrS2-3Thi-BztA-GlnR*3-Val-Asp-Ala-NH2]

IC50 [1]: > 10 µM | IC50 [2]: < 50 nM
SMILES: C[C@H](NC(=O)[C@@H]1CCC(=O)NCCCC[C@@H]2NC(=O)[C@H](Cc3ccccc3)NC(=O)[C@H](C)NC(=O)C(C)(C)NC(=O)[C@H](Cc3cccc(C(=O)O)c3)NC(=O)[C@H](CC(=O)O)NC(=O)[C@](C)(NC(=O)[C@@H]3CN(Cc4ccccc4)CC=CCCCC(=O)N4CCC[C@@]4(C)C(=O)N[C@@H](CC(=O)O)C(=O)N3)CCCC=CCCCOC(=O)N3CC[C@@](C3)(NC2=O)C(=O)N[C@@H](Cc2ccsc2)C(=O)N[C@@H](Cc2csc3ccccc23)C(=O)N1)C(N)=O (relative stereo) [I-519, 5hexenyl-MePro-Asp-[Bn][Allyl]Dap-R5-Asp-3COOHF-Aib-Ala-Phe-Lys*3-PyrS2-3Thi-BztA-GlnR*3-Ala-NH2]
